Paper PMC8019157 (Antiviral research, 2021)

Sequences of proteins named here, by UniProt entry; tags and fusion partners are left off. A change or cut given only in a name is not applied to a line headed by its entry.
UniProt P11716: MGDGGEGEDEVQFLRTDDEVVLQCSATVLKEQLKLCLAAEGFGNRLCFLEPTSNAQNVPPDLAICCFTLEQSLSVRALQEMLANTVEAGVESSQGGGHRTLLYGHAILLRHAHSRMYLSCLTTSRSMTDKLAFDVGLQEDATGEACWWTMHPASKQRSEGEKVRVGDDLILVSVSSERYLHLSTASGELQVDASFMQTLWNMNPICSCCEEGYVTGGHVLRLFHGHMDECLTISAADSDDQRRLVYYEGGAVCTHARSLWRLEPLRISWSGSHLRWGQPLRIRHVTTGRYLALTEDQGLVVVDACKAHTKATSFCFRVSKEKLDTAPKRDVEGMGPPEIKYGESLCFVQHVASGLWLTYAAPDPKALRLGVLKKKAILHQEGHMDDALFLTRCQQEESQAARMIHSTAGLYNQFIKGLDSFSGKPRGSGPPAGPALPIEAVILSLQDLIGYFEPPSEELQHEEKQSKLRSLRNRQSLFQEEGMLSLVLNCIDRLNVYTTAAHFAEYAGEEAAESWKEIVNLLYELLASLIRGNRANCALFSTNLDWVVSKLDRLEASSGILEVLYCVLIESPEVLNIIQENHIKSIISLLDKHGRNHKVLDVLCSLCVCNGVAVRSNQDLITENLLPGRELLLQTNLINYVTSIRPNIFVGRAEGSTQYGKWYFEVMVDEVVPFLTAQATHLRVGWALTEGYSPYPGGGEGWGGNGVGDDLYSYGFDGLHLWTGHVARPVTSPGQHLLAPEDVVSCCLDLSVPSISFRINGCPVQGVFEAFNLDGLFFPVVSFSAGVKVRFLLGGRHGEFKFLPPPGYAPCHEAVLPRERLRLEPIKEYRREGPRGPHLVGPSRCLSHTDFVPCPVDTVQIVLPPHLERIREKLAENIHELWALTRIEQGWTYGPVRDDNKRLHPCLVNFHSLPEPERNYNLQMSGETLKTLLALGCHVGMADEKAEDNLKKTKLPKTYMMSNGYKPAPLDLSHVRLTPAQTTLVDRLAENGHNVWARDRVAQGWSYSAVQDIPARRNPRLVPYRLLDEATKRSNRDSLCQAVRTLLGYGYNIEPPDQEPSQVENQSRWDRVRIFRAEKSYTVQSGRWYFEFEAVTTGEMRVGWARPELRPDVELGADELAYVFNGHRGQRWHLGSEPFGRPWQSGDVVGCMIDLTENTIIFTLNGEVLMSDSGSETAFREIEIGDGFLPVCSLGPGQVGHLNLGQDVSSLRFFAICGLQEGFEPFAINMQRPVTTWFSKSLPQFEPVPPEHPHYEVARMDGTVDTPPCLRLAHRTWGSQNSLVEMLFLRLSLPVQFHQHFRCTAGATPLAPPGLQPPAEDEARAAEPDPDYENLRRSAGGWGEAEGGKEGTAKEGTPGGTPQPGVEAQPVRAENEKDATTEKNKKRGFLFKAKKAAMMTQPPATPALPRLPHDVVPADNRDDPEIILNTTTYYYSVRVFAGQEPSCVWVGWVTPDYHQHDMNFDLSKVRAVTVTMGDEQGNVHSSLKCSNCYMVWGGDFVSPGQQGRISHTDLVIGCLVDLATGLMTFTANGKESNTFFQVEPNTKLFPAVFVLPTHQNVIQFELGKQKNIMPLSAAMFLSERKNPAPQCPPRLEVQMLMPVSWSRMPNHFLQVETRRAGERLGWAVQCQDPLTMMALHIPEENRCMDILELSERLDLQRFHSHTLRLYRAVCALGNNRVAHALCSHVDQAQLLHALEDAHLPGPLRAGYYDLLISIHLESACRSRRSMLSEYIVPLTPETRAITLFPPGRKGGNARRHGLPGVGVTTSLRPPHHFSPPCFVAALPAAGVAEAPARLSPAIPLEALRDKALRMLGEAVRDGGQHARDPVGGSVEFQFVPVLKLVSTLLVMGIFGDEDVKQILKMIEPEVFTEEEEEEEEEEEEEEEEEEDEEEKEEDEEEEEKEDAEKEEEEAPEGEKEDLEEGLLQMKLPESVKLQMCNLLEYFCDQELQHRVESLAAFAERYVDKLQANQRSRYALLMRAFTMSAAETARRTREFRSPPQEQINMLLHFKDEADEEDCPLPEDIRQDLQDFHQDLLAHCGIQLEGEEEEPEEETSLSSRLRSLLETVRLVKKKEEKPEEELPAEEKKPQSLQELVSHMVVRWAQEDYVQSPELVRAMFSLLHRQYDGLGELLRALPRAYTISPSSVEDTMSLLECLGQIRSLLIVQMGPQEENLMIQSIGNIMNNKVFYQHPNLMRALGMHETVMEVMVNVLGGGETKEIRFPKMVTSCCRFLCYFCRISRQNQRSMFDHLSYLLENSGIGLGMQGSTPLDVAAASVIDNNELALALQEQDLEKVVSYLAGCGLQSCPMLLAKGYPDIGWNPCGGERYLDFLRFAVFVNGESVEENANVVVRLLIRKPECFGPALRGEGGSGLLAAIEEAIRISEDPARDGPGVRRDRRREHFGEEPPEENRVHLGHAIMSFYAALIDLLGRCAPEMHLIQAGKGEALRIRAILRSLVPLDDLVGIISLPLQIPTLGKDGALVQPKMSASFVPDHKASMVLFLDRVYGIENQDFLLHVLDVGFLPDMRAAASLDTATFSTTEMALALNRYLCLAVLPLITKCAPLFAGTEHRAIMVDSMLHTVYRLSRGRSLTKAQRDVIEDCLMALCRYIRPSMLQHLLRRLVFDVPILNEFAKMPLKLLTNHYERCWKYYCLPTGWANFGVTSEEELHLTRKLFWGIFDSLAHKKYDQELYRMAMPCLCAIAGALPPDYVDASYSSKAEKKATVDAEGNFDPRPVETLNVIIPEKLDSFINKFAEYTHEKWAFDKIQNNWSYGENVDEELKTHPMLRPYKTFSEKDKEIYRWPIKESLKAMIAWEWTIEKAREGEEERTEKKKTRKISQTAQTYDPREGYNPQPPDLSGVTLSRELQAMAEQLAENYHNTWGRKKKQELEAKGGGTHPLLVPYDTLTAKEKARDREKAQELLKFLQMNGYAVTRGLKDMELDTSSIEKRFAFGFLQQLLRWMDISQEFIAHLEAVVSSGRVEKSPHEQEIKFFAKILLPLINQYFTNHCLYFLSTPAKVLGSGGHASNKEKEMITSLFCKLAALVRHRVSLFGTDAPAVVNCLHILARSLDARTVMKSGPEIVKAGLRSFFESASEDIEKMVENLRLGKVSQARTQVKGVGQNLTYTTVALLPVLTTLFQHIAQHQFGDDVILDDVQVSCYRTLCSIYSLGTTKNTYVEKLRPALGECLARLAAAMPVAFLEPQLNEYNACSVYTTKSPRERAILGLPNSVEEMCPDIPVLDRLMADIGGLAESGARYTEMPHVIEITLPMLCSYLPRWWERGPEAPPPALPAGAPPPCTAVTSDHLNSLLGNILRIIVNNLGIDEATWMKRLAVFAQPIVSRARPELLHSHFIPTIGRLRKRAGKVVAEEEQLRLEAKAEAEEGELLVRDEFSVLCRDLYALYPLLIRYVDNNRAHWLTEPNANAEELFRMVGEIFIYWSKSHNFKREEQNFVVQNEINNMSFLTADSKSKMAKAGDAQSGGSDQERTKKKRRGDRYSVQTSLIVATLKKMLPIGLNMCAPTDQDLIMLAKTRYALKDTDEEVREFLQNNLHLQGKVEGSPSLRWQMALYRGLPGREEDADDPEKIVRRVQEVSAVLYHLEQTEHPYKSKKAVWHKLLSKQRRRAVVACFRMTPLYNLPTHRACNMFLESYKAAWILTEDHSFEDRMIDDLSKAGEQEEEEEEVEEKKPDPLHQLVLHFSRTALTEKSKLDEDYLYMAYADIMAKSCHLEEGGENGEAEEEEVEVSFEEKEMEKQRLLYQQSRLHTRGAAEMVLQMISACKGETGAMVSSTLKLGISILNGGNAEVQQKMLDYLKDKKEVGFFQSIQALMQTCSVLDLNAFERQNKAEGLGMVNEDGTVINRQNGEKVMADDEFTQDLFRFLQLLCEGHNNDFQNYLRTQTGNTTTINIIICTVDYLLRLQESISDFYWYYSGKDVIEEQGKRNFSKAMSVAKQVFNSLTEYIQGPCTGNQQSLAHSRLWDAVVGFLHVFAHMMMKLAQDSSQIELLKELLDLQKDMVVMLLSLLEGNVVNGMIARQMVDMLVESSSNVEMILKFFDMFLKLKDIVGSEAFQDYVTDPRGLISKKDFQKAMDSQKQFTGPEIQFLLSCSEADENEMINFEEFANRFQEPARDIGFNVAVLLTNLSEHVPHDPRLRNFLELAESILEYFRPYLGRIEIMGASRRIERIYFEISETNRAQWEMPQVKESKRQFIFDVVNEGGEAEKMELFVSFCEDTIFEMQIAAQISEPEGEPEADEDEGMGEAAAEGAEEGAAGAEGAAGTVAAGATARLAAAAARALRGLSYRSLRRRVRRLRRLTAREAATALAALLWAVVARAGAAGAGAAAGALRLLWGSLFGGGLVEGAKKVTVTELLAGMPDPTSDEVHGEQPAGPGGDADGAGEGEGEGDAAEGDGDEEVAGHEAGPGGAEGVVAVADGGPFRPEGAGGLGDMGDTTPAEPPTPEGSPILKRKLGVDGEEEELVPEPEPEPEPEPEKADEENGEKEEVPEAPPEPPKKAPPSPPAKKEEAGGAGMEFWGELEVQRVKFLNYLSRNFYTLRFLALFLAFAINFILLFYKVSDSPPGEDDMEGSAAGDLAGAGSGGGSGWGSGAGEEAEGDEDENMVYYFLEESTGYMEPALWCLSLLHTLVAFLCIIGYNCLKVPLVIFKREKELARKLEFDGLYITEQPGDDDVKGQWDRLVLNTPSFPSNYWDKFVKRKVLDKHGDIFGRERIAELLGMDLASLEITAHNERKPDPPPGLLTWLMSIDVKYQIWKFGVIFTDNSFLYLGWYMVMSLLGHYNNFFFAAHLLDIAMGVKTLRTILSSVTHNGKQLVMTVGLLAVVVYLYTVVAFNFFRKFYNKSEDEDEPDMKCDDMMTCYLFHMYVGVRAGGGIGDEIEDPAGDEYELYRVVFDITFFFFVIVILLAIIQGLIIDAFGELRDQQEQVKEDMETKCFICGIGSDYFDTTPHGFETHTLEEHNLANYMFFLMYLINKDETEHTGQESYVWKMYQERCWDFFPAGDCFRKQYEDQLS

Target: rabbit skeletal muscle ryanodine receptor Ca^2+ release channel (RyR1) (Oryctolagus cuniculus, UniProt P11716)
Assay: [^3H]ryanodine binding/displacement assay with SR membrane vesicles

## CC(C)[C@@]1(O)[C@@H](OC(=O)c2ccc[nH]2)[C@@]2(O)[C@@]3(C)C[C@]4(O)O[C@@]5([C@H](O)[C@@H](C)CC[C@]35O)[C@@]2(O)[C@@]14C [ryanodine]
  IC50: 5.3 ± 0.4 nM
  Ki: 1.4 ± 0.2 nM
